Read-outs that look alike come from different tables or passages of the source.
Assays:
[1] = not given; remark: listed apart in the source
[2] = not given; remark: listed apart in the source
[3] = not given; remark: listed apart in the source
[4] = room temperature, duration of stability study
clinical = conditions: male, human, in vivo, inhaled or intranasal
[5] = cited from earlier work
[6] = different combinations of device and formulation

With CN1CCCC1c1cccnc1 (centres unmarked) [nicotine, S-3-(1-methyl-2-pyrrolidinyl)pyridine] the “subject-reported craving immediately following study dosing” value (nearly all subjects) was “acute reduction in craving or an absence of craving”, the mean craving score (scale of 0 to 10, all dose levels combined, within 5 minutes post-dosing, pre-dose 4.9) was 1.4 and the “safety and tolerability conclusion” value ([1]; inhaled nicotine via the AERx Essence) was “safe and tolerable”. For the same molecule, the “severity of AEs” value ([1]; most AEs, self-resolved without medication) was “mild or moderate”, the “serious AEs” value ([1]; single-bolus inhaled doses) was “No serious AEs were observed” and the “changes in safety measures following dosing” value ([1]; vital signs, ECG, spirometry, labs) was “No clinically significant changes”. The “impact on pH” value ([2]; 28 days, throughout pH range 3.0-7.0) was “no impact on pH”, the “nicotine concentration on storage” value ([2]; higher pH values) was “decreased over time” and the “nicotine concentration on storage” value ([2]; lower pH's of 3.0 and 4.0, buffered, screening study pH 3.0-7.0) was “unaltered”. For the same molecule, the GSD [3, 6] was 1.3, the MMAD [3, 6] was 2.5-2.7 μm and the GSD ([3]; either dose reduction strategy) was 1.3. For the same molecule, the fine particle fraction ([3]; either dose reduction strategy) was 80%, the “typical MMAD” value ([3]; either dose reduction strategy) was 2.6 μm and the “typical fine particle fraction” value ([3]; fraction of particles under 3.5 μm) was “about 80%”. For the same molecule, the “stability of aqueous formulation” value [4] was “stable at room temperature for a period of at least a month”, the Tmax (clinical) was 1 min and the AUC(0-t) (clinical; 0.2 mg) was 5.32 ng·h/mL. The Cmax (clinical; 0.2 mg) was 11.5 ng/mL, the Tmax (clinical; 0.2 mg) was 1 min and the half-life (clinical; 0.2 mg) was 136 min. The AUC(0-t) (clinical; 0.4 mg) was 8.87 ng·h/mL, the Cmax (clinical; 0.4 mg) was 18 ng/mL and the Tmax (clinical; 0.4 mg) was 1 min. The half-life (clinical; 0.4 mg) was 114 min, the AUC(0-t) (clinical; 0.7 mg) was 10.4 ng·h/mL and the Cmax (clinical; 0.7 mg) was 22.9 ng/mL. The Tmax (clinical; 0.7 mg) was 1 min, the half-life (clinical; 0.7 mg) was 97 min and the peak plasma concentrations ([5]; cigarette smoking, believed typical) was 25 to 40 ng/mL. The “time to peak plasma concentration” value ([5]; cigarette smoking) was 5 to 7 min and the “nicotine the smoker typically absorbs per cigarette” value ([5]; cigarettes contain 6 to 11 mg of nicotine) was 1 to 3 mg.

— patent US20110182831A1 (priority 2010, published 2011)
